# Experiment: Solubility in PEI or 1,4-diaminobutane (DAB)
# Text: The side chain amino groups of certain amino acid can serve as nucleophiles for the Michael addition to enones. Generally, amino acids are flaky or crystalline solids at room temperature, thus, they should be dissolved in a liquid to effectively participate in the set reaction.
substance,measurement,value
guanidine carbonate [GUAC],solubility (w/w) in PEI,25.2%
